Assay results published in patent publication US20080201790A1 (published 2008).

How the values were obtained:
[1] = target: T1, C4Raf (amino terminus of Raf-1, encoded by p-C4Raf, expressed in COS cells); assay: GST agarose pull-down from COS cell lysate, anti-Raf immunoblot
T1 construct: domain: amino terminus of Raf-1

[2] = target: T2, MEKK1 (protein encoded by p-MEKK1, transiently expressed in COS cells) (mouse, UniProt P53349 822-1493, limits assumed); assay: GST agarose pull-down from COS cell lysate, anti-MEKK immunoblot
T2 construct: Full-length MEKK1 in COS cell lysate; also called holoMEKK1; MEK kinase 1
T2 sequence: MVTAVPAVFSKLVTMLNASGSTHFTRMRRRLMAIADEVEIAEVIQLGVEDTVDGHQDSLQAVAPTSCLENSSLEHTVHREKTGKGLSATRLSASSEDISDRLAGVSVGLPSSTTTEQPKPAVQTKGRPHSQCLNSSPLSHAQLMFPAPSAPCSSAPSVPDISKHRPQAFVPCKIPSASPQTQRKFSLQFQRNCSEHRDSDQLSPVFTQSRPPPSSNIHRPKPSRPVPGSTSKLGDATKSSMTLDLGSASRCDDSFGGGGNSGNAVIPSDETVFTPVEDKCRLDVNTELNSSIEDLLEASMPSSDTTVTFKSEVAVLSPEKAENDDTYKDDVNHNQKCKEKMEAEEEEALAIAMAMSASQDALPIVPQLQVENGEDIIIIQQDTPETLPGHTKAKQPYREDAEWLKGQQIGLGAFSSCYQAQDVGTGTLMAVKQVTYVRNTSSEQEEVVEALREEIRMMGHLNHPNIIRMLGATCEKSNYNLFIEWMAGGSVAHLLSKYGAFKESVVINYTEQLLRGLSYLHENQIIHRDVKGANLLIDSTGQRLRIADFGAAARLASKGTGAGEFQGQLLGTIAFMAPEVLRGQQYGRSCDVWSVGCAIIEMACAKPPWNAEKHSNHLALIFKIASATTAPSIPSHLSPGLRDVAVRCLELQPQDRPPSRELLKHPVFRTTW

B1: GST agarose (control) (other, UniProt P08515 1-218, looked up)
chain: MSPILGYWKIKGLVQPTRLLLEYLEEKYEEHLYERDEGDKWRNKKFELGLEFPNLPYYIDGDVKLTQSMAIIRYIADKHNMLGGCPKERAEISMLEGAVLDIRYGVSRIAYSKDFETLKVDFLSKLPEMLKMFEDRLCHKTYLNGDHVTHPDFMLYDALDVVLYMDPMCLDAFPKLVCFKKRIEAIPQIDKYLKSSKYIAWPLQGWQATFGGGDHPPK
notes: Negative control for the Ras pull-downs
Question: Which results are given for B1?
Answer: binding result [1]: no binding; binding result [2]: no binding
